# Measured affinities in a library of Ab-14 heavy chain variants

The measurements come from Li et al. 2023 (doi:10.1038/s41467-023-39022-2) through the FLAb antibody collection.

The target is the same throughout: PDVDLGDISGINAS, from the HR2 region of SARS-CoV-2 spike.

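The starting antibody came from a phage panning campaign against this peptide. The variants were designed computationally from a first round of random CDR variants and then made and measured. Group labels follow the data file (Ctrl: baseline library sampled from a position-specific scoring matrix, with some repeated check sequences; Rand: our label for a block that the file lists under HC and that is probably the random mutants of the ten best first-round binders; En: ensemble of fine-tuned language models; GP: Gaussian process model; GPLM: also part of the Gaussian process libraries; HC: hill climbing; Gen: genetic algorithm; Gibbs: Gibbs sampling; a sequence that several methods proposed may carry one label only). The scFvs were displayed on barcoded MATa yeast, the peptide on MATalpha yeast. Mating (16 h, 30 °C) was followed by selection of diploids and sequencing of their barcodes. Each replicate has its own calibration line, from reference interactions of the BCL2 family. The assay was run in six technical replicates.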

The variants keep the light chain, the linker and the frameworks of Ab-14 (scFv order VH, a (GGGGS)3 linker, VL).
VH: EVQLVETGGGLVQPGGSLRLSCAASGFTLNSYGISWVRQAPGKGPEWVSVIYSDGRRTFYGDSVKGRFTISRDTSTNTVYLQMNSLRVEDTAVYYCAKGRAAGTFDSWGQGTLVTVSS
VL: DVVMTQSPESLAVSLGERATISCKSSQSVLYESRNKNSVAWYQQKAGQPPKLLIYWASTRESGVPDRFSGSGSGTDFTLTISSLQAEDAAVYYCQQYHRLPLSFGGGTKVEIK

The parent's heavy chain CDRs are GFTLNSYGIS, VIYSDGRRTFYGDSVK, GRAAGTFDS; each variant's own CDRs replace them letter for letter.
Variants here have at most six changes.
Each Kd is an estimate from the mating assay, the geometric mean of the replicates in which the pair was seen; lower is stronger.
A pair that was not seen in any replicate is written "not detected"; this usually means weak binding, but a binder can also be missed.
The authors averaged sequences with at least three values out of six and counted those with two or fewer as poor binders.
The range of this assay differs from that of the first round, and the authors advise against merging the two.
Three control strains display no target. For all heavy chain designs, 1% of the pairings with them gave a signal, with a median of 120 nM and one signal in twenty below 7.0 nM, so weak values seen in few replicates may be background.
Where one sequence has several entries in the source, the replicates are pooled.

| CDR-H1 | CDR-H2 | CDR-H3 | group | apparent Kd | detected |
|---|---|---|---|---|---|
| GFELNSYGIS | VIYADGRRTFYGDSVK | GEAAGTFDF | GP_Gen | 970 pM | 6 of 6 |
| GFTLNEYGIS | VIYSDGQRTFYGDDVK | GRTAGTFDT | GP_Gibbs | not detected | 0 of 6 |
| MFSLNEYGIS | VIYSDGRRTWYGDSVK | GRAAGTFDS | GP_Gibbs | not detected | 0 of 6 |
| GFDLNSYGIS | VIYSDGRRTFYADSVK | GRAAGTFNM | GP_HC | not detected | 0 of 6 |
| GFTMNEYGIS | VIYSDGRRTFYGDSVK | GRAAGFFDS | Ctrl | 54 nM | 1 of 6 |
| GFTVKSYGIS | VIYSDGRRTFYGDSVK | GRTAGTFDS | Ctrl | 27 nM | 1 of 6 |
| GFTLNQYGIS | VIMSDGRRTFYSDSVK | GRAAGFFDR | Rand | not detected | 0 of 6 |
| GFTLNSYGIS | VIYSDGRRTFYKDSVK | GEAAGTFDS | GPLM_Gen | 5.4 nM | 6 of 6 |
| GFTLNSYGIS | VIYSDGRRTFYSDSVK | GSAAGTFDK | GPLM_HC | 3.3 nM | 6 of 6 |
| GFSLNTYGIS | VIYSDGRRTFYGDSVK | GKVAGTFDS | GP_Gibbs | 4.8 nM | 6 of 6 |
| GFTLNSYGIS | VIYSDGRKTFYGDSVK | GRAAGQFDS | Ctrl | not detected | 0 of 6 |
| GFELNSYGIS | VIYSDGRRTFYVDSVK | GRTAGTFDA | GP_Gibbs | 4.6 nM | 6 of 6 |
| GFDLNSYGIS | VIYSDGRRTFYGDSVK | GREAGTFES | GP_HC | 720 pM | 6 of 6 |
| GEKLNSYGIS | VIYSDGRRTFYLDSVK | GRHAGTFMS | Ctrl | not detected | 0 of 6 |
| MFDLNSYGIS | VIYSDGRRTFYGDSVK | GQIAGTFDS | GP_Gibbs | 970 pM | 6 of 6 |
| GFSLNSYGIS | VIYSDGRRTFYDDSVK | GRAGGTFDS | GP_HC | 2.9 nM | 2 of 6 |
| GFDLNSYGIS | VIYSDGRRTFYGDSVK | GREAGTFNS | GPLM_HC | 2.3 nM | 6 of 6 |
| GFSLNSYGIS | VIYSDGRRTFYLDSVK | GNAAGTFDS | GPLM_Gen | 2.0 nM | 6 of 6 |
| GFTLNSYGIS | VIYSDGRRKFYGDSVK | GRAAGTFDS | Ctrl | not detected | 0 of 6 |
| GFTLNSYGIS | VIYSDGRRTAYGDSVK | GRWMGTFDS | Ctrl | not detected | 0 of 6 |
| KFKLNSYGIS | VIYADGRRTFYGDSVK | GKAAGTFDS | GP_Gen | 630 pM | 6 of 6 |
| GFTLNSYGIS | VIYSDGRRTFYGDSVK | RTAAGWFDS | Ctrl | not detected | 0 of 6 |
| GFNLNEYGIS | VIYADGRRTFYADSVK | GEAAGTFDS | En_HC | 530 pM | 6 of 6 |
| GFELNSYGIS | VIYSDGRRTFYHDSVK | GRLAGTFDS | GP_Gibbs | 1.8 nM | 6 of 6 |
| GFTLNSYGIS | VIYADGRRTFYGDSVK | GQEAGTFDS | GPLM_Gen | 360 pM | 6 of 6 |
| GFTLNSYGIS | VIYADGRRTFYGDDVK | GRTAGTFDS | GPLM_HC | 1.7 nM | 6 of 6 |
| GFTLNSYGIS | VIYADGRRTFYGDSVK | GRAAGTNKI | GPLM_HC | 3.9 nM | 6 of 6 |
| GFTINTYGIS | VIYADGRRTFYGDSVK | GQAAGTFDS | Ctrl | 1.6 nM | 6 of 6 |
| GFTLNSYGIS | VIYADGRRTFYGDDVK | GRAAGTFDS | Ctrl+GPLM_Gen | 820 pM | 12 of 12 |
| GFTLDSYGIS | VIYSDGRTTFYGDSVK | GRAAGTALS | Rand | not detected | 0 of 6 |
| GFDLNSYGIS | VIYSDGRRTFYGDSVK | GRAAGTFFD | Ctrl | not detected | 0 of 6 |
| GFSLNAYGIS | VIYSDGKRTFYGDSVK | GRTAGTFDS | GPLM_Gibbs | 2.2 nM | 6 of 6 |
| GFSLNKYGIS | VIYSDGRRTFYGDSVK | GRQAGTFDS | GPLM_Gen | 34 nM | 5 of 6 |
| GFELNNYGIS | VIYSDGRRTFYGDWVK | GRTAGTFDS | GP_Gibbs | not detected | 0 of 6 |
| GFGLNEYGIS | VIYSDGRRTFYSDSVK | GQPAGTFDS | GP_HC | 1.2 nM | 6 of 6 |
| GFGLNSYGIS | VIYSDGQRTFYGDSVK | GREAGTFDS | Ctrl | 7.1 nM | 6 of 6 |
| GFHLNSYGIS | VIYSDGRRTFYADSVK | GHEAGTFDS | GPLM_Gibbs | 2.5 nM | 6 of 6 |
| GFQLNEYGIS | VIYSDGRRTFYDDSVK | GRTAGTFDS | GP_HC | 550 pM | 6 of 6 |
| GFWLNEYGIS | VIYSDGRRTFYHDSVK | GRAAVTFDN | GP_HC | not detected | 0 of 6 |
| GFDLNSYGIS | VIYSDGRRTFYGDSVK | GRNAGTFNS | GPLM_HC | 87 nM | 5 of 6 |
| GFSLNQYGIS | VIYSDGRRTFYSDSVK | GRAAGIFDS | GPLM_HC | not detected | 0 of 6 |
| KFTLNMYGIS | VIYSDGRRTFYGDSVK | GREAGTFDS | Ctrl | 92 nM | 6 of 6 |
| GFSLNSYGIS | VIYSDGRRTFYQDSVK | GRAAGTFDS | Ctrl+GPLM_Gen | 1.4 nM | 8 of 12 |
| GFTLNEYGIS | VIYSDGRRTFYGDDVK | GRTAGTFDT | GP_Gen | 580 pM | 6 of 6 |
| GFGLNQYGIS | VIYSDGRRTAYQDSVK | GRAAGTFDS | GP_HC | 4.8 nM | 6 of 6 |
| GFQLNDYGIS | VIYSDGRRTFYGDSVK | GRNAGTFIS | GP_HC | not detected | 0 of 6 |
| GFTLNEYGIS | VIYSDGRRTAYGDSVK | GHAAATFDS | Ctrl | 87 nM | 1 of 6 |
| GFSLNSYGIS | VIYSDGRRTFYADSVK | GMAAGTFDS | GPLM_Gen | 3.0 nM | 6 of 6 |
| GFTLNEYGIS | VIYSDGRRTEYGESVK | GRAAVTFDQ | Rand | not detected | 0 of 6 |
| GFDLNSYGIS | VIYSDGRRTFYADSVK | GKVAGTFDS | GP_Gen | 26 pM | 5 of 6 |
| GFTLNTYGIS | VIYSDGWRTFYTDSVK | GRFCGTFDS | Rand | not detected | 0 of 6 |
| GTMVNSYGIS | VIYSDGRRTFYGDSVK | GRAAGTFDS | Ctrl | 250 nM | 1 of 6 |

The first 7 variants above that were never detected:

| CDR-H1 | CDR-H2 | CDR-H3 | group | apparent Kd | detected |
|---|---|---|---|---|---|
| GFTLNEYGIS | VIYSDGQRTFYGDDVK | GRTAGTFDT | GP_Gibbs | not detected | 0 of 6 |
| MFSLNEYGIS | VIYSDGRRTWYGDSVK | GRAAGTFDS | GP_Gibbs | not detected | 0 of 6 |
| GFDLNSYGIS | VIYSDGRRTFYADSVK | GRAAGTFNM | GP_HC | not detected | 0 of 6 |
| GFTLNQYGIS | VIMSDGRRTFYSDSVK | GRAAGFFDR | Rand | not detected | 0 of 6 |
| GFTLNSYGIS | VIYSDGRKTFYGDSVK | GRAAGQFDS | Ctrl | not detected | 0 of 6 |
| GEKLNSYGIS | VIYSDGRRTFYLDSVK | GRHAGTFMS | Ctrl | not detected | 0 of 6 |
| GFTLNSYGIS | VIYSDGRRKFYGDSVK | GRAAGTFDS | Ctrl | not detected | 0 of 6 |